The assay concerns the target recombinant human ACC2 (Homo sapiens (Human), UniProt O00763). As to the kind of experiment: Measurement of inhibitory activity of human ACC2. The settings on record: read-out: IC50 hACC2. It is filed as biochemical. An excerpt:
A cDNA encoding human ACC2 protein (27 amino acid residues to 2458 amino acid residues from the N-terminus) was cloned from a human kidney cDNA library (Clontech Laboratories, Inc.), a His-tag sequence was introduced at the 5′ end, and then inserted into pFastBac1 (Invitrogen). A recombinant baculovirus was produced in accordance with the protocol for a Bac-to-Bac baculovirus expression system (Invitrogen), and Sf-9 cells were infected therewith to express human ACC2 protein. The recovered cells were crushed, filtered through a filter, and then subjected to Ni affinity chromatography and anion exchange chromatography. Fractions containing human ACC2 protein were collected to obtain recombinant human ACC2.
The recombinant human ACC1 and the recombinant human ACC2 obtained from the above Preparation Examples were preincubated in an assay buffer (50 mM HEPES-KOH (pH 7.4), 10 mM magnesium chloride, 6 to 10 mM potassium citrate, 4 mM reduced glutathione, and 1.5 mg/ml bovine serum albumin) for 1 hour. […] Deprotonated ions of the substrate acetyl-CoA (AcCoA) and the reaction product malonyl-CoA (MalCoA) were detected, and the intensity of each signal was used to calculate a conversion rate to malonyl-CoA […], i.e., intensity of [MalCoA-H]-/(intensity of [MalCoA-H]-+intensity of [AcCoA-H]-). […]

By UniProt entry, the sequences of proteins in these tests, tags left out. Residues count along the entry.
UniProt O00763, 27-2458: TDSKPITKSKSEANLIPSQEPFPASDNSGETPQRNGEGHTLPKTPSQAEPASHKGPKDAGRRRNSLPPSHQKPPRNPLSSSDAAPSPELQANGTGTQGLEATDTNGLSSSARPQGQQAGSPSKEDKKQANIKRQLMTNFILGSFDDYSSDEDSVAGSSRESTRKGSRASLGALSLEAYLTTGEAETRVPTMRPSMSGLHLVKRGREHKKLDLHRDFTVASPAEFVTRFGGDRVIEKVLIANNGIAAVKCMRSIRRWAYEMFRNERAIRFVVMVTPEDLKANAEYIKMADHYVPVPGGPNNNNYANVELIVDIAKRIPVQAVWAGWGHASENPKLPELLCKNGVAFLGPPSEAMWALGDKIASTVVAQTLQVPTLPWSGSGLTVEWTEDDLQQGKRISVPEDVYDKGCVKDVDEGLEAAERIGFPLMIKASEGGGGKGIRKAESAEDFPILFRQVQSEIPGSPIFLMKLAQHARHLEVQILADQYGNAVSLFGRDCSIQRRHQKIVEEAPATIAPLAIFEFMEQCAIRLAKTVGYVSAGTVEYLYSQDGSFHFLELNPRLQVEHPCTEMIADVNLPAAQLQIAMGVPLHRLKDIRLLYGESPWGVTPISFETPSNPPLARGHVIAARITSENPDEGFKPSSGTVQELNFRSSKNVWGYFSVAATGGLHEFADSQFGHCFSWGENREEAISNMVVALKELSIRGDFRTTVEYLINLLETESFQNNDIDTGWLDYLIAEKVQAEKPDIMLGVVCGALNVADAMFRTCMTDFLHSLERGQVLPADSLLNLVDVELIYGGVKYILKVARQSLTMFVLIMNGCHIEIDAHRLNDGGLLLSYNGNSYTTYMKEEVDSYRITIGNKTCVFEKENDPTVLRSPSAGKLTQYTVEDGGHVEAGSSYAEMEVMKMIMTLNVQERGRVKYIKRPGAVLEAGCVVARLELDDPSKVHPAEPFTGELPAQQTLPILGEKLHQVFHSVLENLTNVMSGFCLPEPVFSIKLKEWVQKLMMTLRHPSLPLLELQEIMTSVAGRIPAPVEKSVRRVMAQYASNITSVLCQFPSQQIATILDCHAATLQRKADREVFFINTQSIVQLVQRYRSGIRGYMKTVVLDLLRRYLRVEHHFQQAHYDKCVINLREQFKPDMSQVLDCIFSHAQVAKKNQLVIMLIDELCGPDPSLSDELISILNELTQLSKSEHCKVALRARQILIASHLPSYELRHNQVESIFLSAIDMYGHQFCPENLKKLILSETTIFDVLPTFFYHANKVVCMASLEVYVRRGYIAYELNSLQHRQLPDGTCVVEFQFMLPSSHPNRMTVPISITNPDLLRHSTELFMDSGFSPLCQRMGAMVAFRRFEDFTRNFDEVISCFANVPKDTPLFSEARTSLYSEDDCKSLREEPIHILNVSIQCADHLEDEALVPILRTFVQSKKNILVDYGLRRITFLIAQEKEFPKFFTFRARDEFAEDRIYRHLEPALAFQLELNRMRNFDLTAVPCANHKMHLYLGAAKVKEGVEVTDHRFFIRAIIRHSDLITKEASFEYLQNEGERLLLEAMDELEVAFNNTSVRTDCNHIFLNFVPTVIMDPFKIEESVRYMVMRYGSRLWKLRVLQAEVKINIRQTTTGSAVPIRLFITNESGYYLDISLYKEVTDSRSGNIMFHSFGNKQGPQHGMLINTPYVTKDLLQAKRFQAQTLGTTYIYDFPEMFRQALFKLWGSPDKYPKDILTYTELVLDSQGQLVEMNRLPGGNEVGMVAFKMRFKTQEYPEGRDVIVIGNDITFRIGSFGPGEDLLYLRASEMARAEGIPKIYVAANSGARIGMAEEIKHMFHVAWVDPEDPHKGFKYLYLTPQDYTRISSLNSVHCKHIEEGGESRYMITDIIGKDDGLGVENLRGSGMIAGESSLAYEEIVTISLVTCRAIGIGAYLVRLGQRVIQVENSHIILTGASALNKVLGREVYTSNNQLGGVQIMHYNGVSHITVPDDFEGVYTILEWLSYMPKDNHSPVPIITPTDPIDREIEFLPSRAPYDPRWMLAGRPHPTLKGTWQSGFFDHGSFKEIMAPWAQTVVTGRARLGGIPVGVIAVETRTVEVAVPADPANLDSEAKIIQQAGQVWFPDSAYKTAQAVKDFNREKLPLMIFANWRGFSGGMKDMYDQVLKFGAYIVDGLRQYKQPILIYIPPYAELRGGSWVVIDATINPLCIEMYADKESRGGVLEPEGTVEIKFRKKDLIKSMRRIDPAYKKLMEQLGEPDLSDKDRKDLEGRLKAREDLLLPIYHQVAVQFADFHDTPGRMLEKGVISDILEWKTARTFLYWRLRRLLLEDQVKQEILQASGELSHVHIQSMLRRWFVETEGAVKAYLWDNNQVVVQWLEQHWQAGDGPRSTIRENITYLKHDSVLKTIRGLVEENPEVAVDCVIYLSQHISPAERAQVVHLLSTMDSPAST

Structures are written as SMILES.

Turning to `CC(=O)N[C@@H](C)CO[C@H]1CC[C@H](Oc2nc3c(Cl)cc(OC4CC4)cc3n2C)CC1` [Compound I-3], the IC50 (usually the point on the concentration scale where inhibition reaches its midpoint) was determined as 6.6 nM.
The figure for `CC(=O)N[C@@H](C)CO[C@H]1CC[C@H](Oc2nc3c(F)cc(OC4CCC4)cc3n2C)CC1` [Compound I-1] is 5.1 nM.

Values taken from US12521375B2, “Pharmaceutical composition for treating fatty liver disease” (Shionogi & Co., Ltd., priority 2020, dated 2026).
